From PMC5228031, “CDK4/6-dependent activation of DUB3 regulates cancer metastasis through SNAIL1” (Nature Communications, 2017)

Biological target: T1, GST-DUB3 (UniProt Q6R6M4 1-530)
T1 construct: cloned into pGEX4T-1; also called GST-DUB3 WT; source: bacterial expressed, purified recombinant
T1 sequence (looked up): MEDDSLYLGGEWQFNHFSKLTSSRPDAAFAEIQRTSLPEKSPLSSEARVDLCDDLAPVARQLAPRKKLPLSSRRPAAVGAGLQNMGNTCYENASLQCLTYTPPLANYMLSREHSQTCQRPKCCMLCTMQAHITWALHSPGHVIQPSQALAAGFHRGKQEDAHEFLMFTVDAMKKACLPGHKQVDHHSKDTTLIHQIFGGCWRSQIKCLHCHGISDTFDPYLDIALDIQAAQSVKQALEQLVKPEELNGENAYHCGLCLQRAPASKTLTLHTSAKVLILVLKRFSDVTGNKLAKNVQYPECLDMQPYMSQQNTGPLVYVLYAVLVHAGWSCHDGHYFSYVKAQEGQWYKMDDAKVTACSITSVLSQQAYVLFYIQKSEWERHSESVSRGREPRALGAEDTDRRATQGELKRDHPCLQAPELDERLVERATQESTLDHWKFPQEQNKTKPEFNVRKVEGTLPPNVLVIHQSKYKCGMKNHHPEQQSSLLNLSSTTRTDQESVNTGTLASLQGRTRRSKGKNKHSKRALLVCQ
Test: pull-down; purified recombinant GST or GST fusion protein and His-tagged protein incubated in vitro
Settings: both partners purified

B1: His-SNAIL1 (natural protein, UniProt O95863 1-264, looked up)
chain: MPRSFLVRKPSDPNRKPNYSELQDSNPEFTFQQPYDQAHLLAAIPPPEILNPTASLPMLIWDSVLAPQAQPIAWASLRLQESPRVAELTSLSDEDSGKGSQPPSPPSPAPSSFSSTSVSSLEAEAYAAFPGLGQVPKQLAQLSEAKDLQARKAFNCKYCNKEYLSLGALKMHIRSHTLPCVCGTCGKAFSRPWLLQGHVRTHTGEKPFSCPHCSRAFADRSNLRAHLQTHSDVKKYQCQACARTFSRMSLLHKHQESGCSGCPR
notes: cloned into PET28A; also called recombinant His-SNAIL1; source: purified recombinant
B1: binds.
